Experimental data as given in article PMC6694038, “Pharmacogenomic–pharmacokinetic study of selective estrogen-receptor modulators with intra-patient dose escalation in breast cancer” (Breast Cancer (Tokyo, Japan), 2019).

Conditions: human, in vivo

**Q.** For `CN(C)CCOc1ccc(/C(=C(/CCCl)c2ccccc2)c2ccccc2)cc1` [TOR, toremifene], which “Total activity, regression mean: Current smoking status” value is on record?
**A.** −2265.1
